Results: patent US20060128757A1, “Pyridine derivatives useful as cyclooxygenase inhibitor” (Astellas Pharma Inc., priority 2001, published 2006)

Protein sequences, listed by entry. Tags and fused reporters are not part of them. Residues count along the entry.
UniProt P23219, 24-599: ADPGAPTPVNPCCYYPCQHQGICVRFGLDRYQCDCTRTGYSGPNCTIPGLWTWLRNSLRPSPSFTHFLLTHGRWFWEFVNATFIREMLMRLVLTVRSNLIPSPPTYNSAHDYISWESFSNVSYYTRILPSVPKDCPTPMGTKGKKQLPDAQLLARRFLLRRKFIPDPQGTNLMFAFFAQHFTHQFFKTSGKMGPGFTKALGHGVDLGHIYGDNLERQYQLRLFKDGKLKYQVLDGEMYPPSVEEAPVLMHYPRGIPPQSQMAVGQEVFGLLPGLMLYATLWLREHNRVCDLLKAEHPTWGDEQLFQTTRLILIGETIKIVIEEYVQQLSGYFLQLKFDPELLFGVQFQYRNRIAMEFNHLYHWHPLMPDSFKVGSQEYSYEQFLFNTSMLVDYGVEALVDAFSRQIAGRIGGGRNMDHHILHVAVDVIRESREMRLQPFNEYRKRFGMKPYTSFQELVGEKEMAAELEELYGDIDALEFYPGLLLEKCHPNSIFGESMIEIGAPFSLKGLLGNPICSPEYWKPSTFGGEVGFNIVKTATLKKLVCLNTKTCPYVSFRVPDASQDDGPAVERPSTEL

Molecular target: COX-I (Homo sapiens, UniProt P23219)
Test: Whole blood assay for COX-I (TXB2 production)

COc1ccc(-c2cc(C#N)cnc2-c2ccc(OC)cc2)cc1 [Example 4, 5-(4-methoxyphenyl)-6-(4-methoxyphenyl)-pyridine-3-carbonitrile]
Selectivity: 112

COc1ccc(-c2noc(CC(=O)O)c2-c2ccc(OC)cc2)cc1 [H, Mofezolac, reference compound]
IC50 (Whole blood assay (IC50: μM) COX-I, Table 1, human whole blood, TXB2 production): 0.42 µM
